## scFv variants of Ab-95 (light chain) against a SARS-CoV-2 spike peptide

Data: MIT Lincoln Laboratory AlphaSeq set, Engelhart et al. 2022, doi:10.1038/s41597-022-01779-4, as distributed in FLAb.

All variants were tested on one target, the spike HR2 peptide PDVDLGDISGINAS (SARS-CoV-2).

Each scFv is VH, the linker GGGGSGGGGSGGGGS, VL, as in the parent Ab-95, and differs from it in the CDRs of the light chain only.
VH: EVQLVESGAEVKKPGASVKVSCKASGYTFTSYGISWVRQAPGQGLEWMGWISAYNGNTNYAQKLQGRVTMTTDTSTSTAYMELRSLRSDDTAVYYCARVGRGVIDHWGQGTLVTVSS
VL: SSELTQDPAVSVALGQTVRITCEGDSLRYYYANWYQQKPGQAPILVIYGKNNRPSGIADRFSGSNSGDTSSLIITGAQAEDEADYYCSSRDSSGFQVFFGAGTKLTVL

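The parent was found by panning a naive human phage display library on the peptide. AAYL52 was designed without a model: most single CDR substitutions and a random sample of double and triple ones. The scFvs were displayed on barcoded MATa yeast, the peptide on MATalpha yeast. Pairs that bind mate more often; barcode pairs of the diploids are counted by sequencing. Read counts were normalised to the haploid input and turned into Kd by a linear fit to BCL2-family pairs of known affinity, for each replicate. The assay was run in three technical replicates.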

Substitutions are numbered in sequence along the VL above, starting at 1 (not Kabat). Every variant below is changed at P54 of the VL (sequential numbering). Each Kd is an estimate from the mating assay, the geometric mean of the replicates in which the pair was seen; lower is stronger. "nd" means that the variant was in the library but no mating with the target was seen in any replicate; the authors take this as a sign of poor binding, and no number exists. Three control strains display no target. For library AAYL52, 28% of the pairings with them gave a signal, with a median of 8.2 µM and one signal in twenty below 800 nM, so weak values seen in few replicates may be background.

changes	Kd (apparent)	seen in
K50E/P54V/G94F	92 nM	3 of 3
P54K	630 nM	3 of 3
P54G/S55G/D91L	nd	0 of 3
G24D/G49Y/P54T	nd	0 of 3
S26I/Y29G/P54R	6.1 µM	3 of 3
N52L/P54T/G94H	1.9 µM	1 of 3
K50A/P54E/V97H	3.2 µM	3 of 3
D25A/N52Y/P54G	830 nM	3 of 3
G24N/P54Q/S55V	11 µM	3 of 3
Y29R/A32S/P54V	23 nM	3 of 3
K50D/P54S/F98W	180 nM	3 of 3
P54S/S92N/F95L	190 nM	3 of 3
G24P/P54Q/V97P	180 µM	1 of 3
P54G/G94W/F98W	420 nM	2 of 3
S26D/P54Y	11 µM	1 of 3
Y29L/P54V/G94C	2.0 µM	3 of 3
N33Q/P54R	6.3 µM	1 of 3
P54E	480 nM	3 of 3
P54R/S93D/F98A	nd	0 of 3
Y29M/Y31S/P54W	1.1 µM	3 of 3
R28D/Y31V/P54A	3.4 µM	3 of 3
A32I/R53T/P54H	21 µM	3 of 3
N52Y/P54M/Q96C	6.0 µM	3 of 3
P54I/S55I/F95I	34 µM	3 of 3
P54C/V97L	nd	0 of 3
P54E/S92I/G94L	1.1 µM	3 of 3
E23A/S26M/P54E	4.7 µM	3 of 3
N33Y/P54Y	28 µM	2 of 3
Y30E/N52H/P54G	26 nM	3 of 3
D25I/P54L/S89T	4.4 µM	1 of 3
G49K/P54F/S89L	16 µM	1 of 3
Y30W/P54M/G94D	16 µM	1 of 3
D25Q/A32S/P54M	510 nM	3 of 3
P54H/S93C/F98R	3.1 µM	2 of 3
R53P/P54S/R90Y	nd	0 of 3
Y30L/P54G/S55T	100 nM	3 of 3
Y30R/P54F/G94K	1.5 µM	3 of 3
D25R/P54W/S55Y	3.9 µM	1 of 3
P54N/S55F/S92M	1.2 µM	3 of 3
N33I/P54D/V97L	2.5 µM	1 of 3
P54E/S55P/V97D	3.6 µM	3 of 3
P54M/S55D/S92L	150 nM	3 of 3
P54N/D91H	2.3 µM	3 of 3
N52P/P54F/S88V	19 µM	2 of 3
L27D/P54C/F95W	nd	0 of 3
P54Q/D91K/F98H	4.1 µM	1 of 3
N51R/R53P/P54L	6.5 µM	1 of 3
Y29H/P54G	69 nM	3 of 3
R28T/R53F/P54H	3.2 µM	1 of 3
G24I/S26V/P54D	3.4 µM	1 of 3
N51A/P54L/S92W	460 nM	1 of 3
S26E/Y29P/P54N	72 nM	3 of 3
Y31C/P54F/S55P	6.2 µM	2 of 3
D25T/P54Q/V97E	14 µM	1 of 3
D25E/N51Y/P54E	1.4 µM	3 of 3
Y31R/P54Q	440 nM	3 of 3
A32N/P54N/G94P	12 µM	2 of 3
N33T/P54S/F95W	30 µM	1 of 3
Y30H/P54T/R90V	82 nM	3 of 3
Y31G/P54C/R90C	25 µM	1 of 3
E23I/Y29W/P54C	1.5 µM	3 of 3
Y31D/P54F/S92Y	66 nM	3 of 3
P54F	650 nM	2 of 3
G24Q/P54T/F95V	55 µM	1 of 3
E23Q/P54K/G94W	5.4 µM	1 of 3
Y29P/Y31H/P54C	4.1 µM	2 of 3
P54D/F95P	5.0 µM	3 of 3
R28I/N51H/P54M	nd	0 of 3
E23P/P54G/S93D	14 µM	2 of 3
R53V/P54T	940 nM	3 of 3
R53K/P54T/S93F	9.7 µM	2 of 3
P54F/R90I/S93D	4.0 µM	3 of 3
N52V/P54Y	5.6 µM	3 of 3
P54V/S93N/F98T	3.0 µM	2 of 3
G24A/N51K/P54E	nd	0 of 3
G49A/P54A/S55H	4.5 µM	3 of 3
D25S/P54L	1.3 µM	3 of 3
G49F/P54I/S89A	22 µM	2 of 3
K50Q/P54Q/R90L	11 µM	3 of 3
D25N/Y30V/P54S	55 nM	3 of 3